Assay results reported in PubChem BioAssay (NCI).
Only a part is listed here, and it is no random draw. Some structures show a salt or complex split into parts, the way the source records it. Some compounds were tested as several samples or in several runs, with calls that do not always agree. The source made the active and inactive calls. No stated cut-off is given here; in the data, active means growth inhibition above about 70%; inactive means the rest.

Assay: NCI Yeast Anticancer Drug Screen. Data for the mgt1 strain (AID 153)
Details: S. cerevisiae mgt1 mutant growth inhibition, active compounds read high
Method: Growth inhibition of yeast strains with defined genetic alterations is measured as a screen for potential anti-cancer activity. Selected strains with alterations in DNA damage repair or cell cycle control were exposed to compounds and growth inhibition was measured relative to vehicle treated controls. The strain used in this assay is mgt1

COc1ccccc1N.O=[N+]([O-])c1cc([N+](=O)[O-])cc([N+](=O)[O-])c1
growth inhibition (at 1.2 µM): inactive: -2%
growth inhibition (at 3.7 µM): inactive: 8%
growth inhibition (at 11.0 µM): inactive: 38%
growth inhibition (at 33.0 µM): active: 100%
growth inhibition (at 100.0 µM): active: 99%

Cc1cc2ccccc2cc1C.O=[N+]([O-])c1cc([N+](=O)[O-])cc([N+](=O)[O-])c1
growth inhibition (at 1.2 µM): inactive: -4%
growth inhibition (at 3.7 µM): inactive: -2%
growth inhibition (at 11.0 µM): inactive: 1%
growth inhibition (at 33.0 µM): inactive: 15%
growth inhibition (at 100.0 µM): active: 87%

O=[N+]([O-])C(F)(COCC(O)CO)[N+](=O)[O-] (stereo not given)
growth inhibition (at 1.2 µM): inactive: -8%
growth inhibition (at 3.7 µM): inactive: -21%
growth inhibition (at 11.0 µM): inactive: -10%
growth inhibition (at 33.0 µM): inactive: 45%
growth inhibition (at 100.0 µM): active: 91%

Nc1ccccc1.O=[N+]([O-])c1cc([N+](=O)[O-])cc([N+](=O)[O-])c1
growth inhibition (at 1.2 µM): inactive: -3%
growth inhibition (at 3.7 µM): inactive: 1%
growth inhibition (at 11.0 µM): inactive: 25%
growth inhibition (at 33.0 µM): active: 99%
growth inhibition (at 100.0 µM): active: 99%

[Au].[C-]#N.[C-]#N
growth inhibition (at 1.2 µM): inactive: -30%
growth inhibition (at 3.7 µM): inactive: -10%
growth inhibition (at 11.0 µM): inactive: -6%
growth inhibition (at 33.0 µM): inactive: 7%
growth inhibition (at 100.0 µM): inactive: 2%

Cc1c2ccccc2cc2ccccc12.O=[N+]([O-])c1cc([N+](=O)[O-])c(O)c([N+](=O)[O-])c1
growth inhibition (at 1.2 µM): inactive: -3%
growth inhibition (at 3.7 µM): inactive: -1%
growth inhibition (at 11.0 µM): inactive: 4%
growth inhibition (at 33.0 µM): inactive: 27%
growth inhibition (at 100.0 µM): active: 97%

Cc1ccc2ccc3ccc4ccccc4c3c2c1.O=C1c2cc([N+](=O)[O-])ccc2-c2c1cc([N+](=O)[O-])cc2[N+](=O)[O-]
growth inhibition (at 1.2 µM): inactive: -4%
growth inhibition (at 3.7 µM): inactive: 1%
growth inhibition (at 11.0 µM): inactive: 0%
growth inhibition (at 33.0 µM): inactive: 6%
growth inhibition (at 100.0 µM): inactive: 18%
